Source: PubChem BioAssay (National Center for Advancing Translational Sciences (NCATS))
An excerpt weighted towards active compounds, which were near 16% of everything screened.
DT40 TDP1 CPT = growth inhibition of DT40 Tdp1-/-;hTDP1 cells with camptothecin (screen for TDP1 inhibitors); chicken DT40 Tdp1-/-;hTDP1 cells + 20 nM CPT, ATP luminescence, 48 h; Potency, µM (doses to about 46.2 µM), usual class: inhibitors; hit rate 12% among 420,000; further: nearly all actives have a fitted effect of over 55% in size
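Chicken DT40 Tdp1-/- cells stably complemented with human TDP1 were seeded at 400 cells/well in medium containing 20 nM camptothecin, exposed to pin-transferred compounds, and grown at 37 °C for at least 48 hr. Viability was read as ATP luminescence.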
miR-21 reporter = raises the signal of a miR-21 reporter | HeLa miR-21 FLuc reporter, luciferase, 48 h | Potency, µM (highest dose often 38.3 µM) | 340,000 tested, under 10 active | AID 2288; active = well fitted rising curve with a large enough effect; inconclusive = small, poorly fitted or top-dose-only effect; inactive = no such curve, though single readings can be large or run the other way;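 note: miR-21 action dims this reporter so a rising signal means less miR-21 action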
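HeLa cells endogenously expressing miR-21, stably carrying CMV-driven firefly luciferase with a downstream miR-21 binding site, 2000 cells/well. Titrations up to approximately 40 uM, 48 hours; luciferase luminescence read.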
TDP1 cell noCPT = qHTS for Inhibitors of human tyrosyl-DNA phosphodiesterase 1 (TDP1): qHTS in cells in absence of CPT; DT40 Tdp1-/- hTDP1 cells, no CPT, ATP luminescence, 48 h; Potency, µM (highest dose often 46.2 µM), hits mostly inhibitors; hit rate 15% among 420,000; further: nearly all actives have a fitted effect of over 55% in size
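Cells were dispensed at 400 per well, compounds added by pin tool, plates incubated ≥48 hr at 37 °C, then CellTiter-Glo added for 30 min at room temperature before luminescence reading. Line: DT40 Tdp1-/- complemented with hTDP1; camptothecin omitted.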
uPA generation = inhibitors of cell surface uPA generation | cell surface uPA generation assay, qHTS | Potency, µM (top dose mostly 38.3 µM), most hits filed as inhibitors | hit rate 0.31% among 330,000; active means well fitted inhibition curve with a large enough effect; inconclusive means small, poorly fitted or top-dose-only effect; inactive means no such curve, though single readings can be large or run the other way; tested in mouse RAW 264.7 cells; further: nearly all actives have a fitted effect of over 55% in size
TDP1 inh = inhibitors of human tyrosyl-DNA phosphodiesterase TDP1. recombinant TDP1, AlphaScreen DNA substrate cleavage. Potency, µM (highest dose often 130 µM), most hits filed as inhibitors. hit rate 0.28% among 350,000. AID 485290; further: nearly all actives have a fitted effect of over 40% in size
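Compounds were preincubated with Tdp1 (1 nM final) for 15 min at room temperature before substrate (15 nM final) started a 5 min reaction; beads (10 ug/ml final) were then added for 10 min before AlphaScreen detection.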
Numbers stand for hits; – = inactive; ? = inconclusive; · = no result given; [ ] = remark or other dose. Unless noted, the call rests on the fitted dose curve; in most records, active means well fitted curve in the direction sought with a large enough effect; inconclusive means small, poorly fitted or top-dose-only effect, or another doubt; inactive means no such curve, though single readings can be large; an effect the other way counts as inactive or inconclusive.

SMILES	DT40 TDP1 CPT	miR-21 reporter	TDP1 cell noCPT	uPA generation	TDP1 inh
O=S(=O)(c1ccc(Cl)cc1)c1nc(-c2ccccc2Br)oc1N1CCOCC1	18µM	–	23µM	·	–[2.28 µM]
COc1cc(-c2nc(S(=O)(=O)c3ccc(C)cc3)c(N3CCOCC3)o2)cc(OC)c1OC	12µM	–	9.2µM	–	–
COc1cc(-c2nc(S(=O)(=O)c3ccc(Cl)cc3)c(N3CCOCC3)o2)cc(OC)c1OC	?	–	16µM	·	–
O=C(c1ccccc1)N(C(=O)c1ccccc1)c1ncnc2c1C(c1ccccc1)c1c(ccc3ccccc13)O2 (stereo unspecified)	·	·	·	–	–
CC#CCN1c2ccccc2[C@]23C[C@@H](C(=O)OC)N(S(=O)(=O)c4ccc(OC)cc4)C2=NC(C(=O)OC)=C(C(=O)OC)[C@H]13	·	·	·	·	–[12.3 µM]
Cc1cc(NC(=O)c2cc3cccc([N+](=O)[O-])c3[nH]2)ccc1F	?	–	21µM	?	–
O=C(NC(=S)Nc1ccc(S(=O)(=O)Nc2nccs2)cc1)c1ccc(F)c(F)c1	–	–	–	–	–
CS(=O)(=O)N(CC(=O)Nc1ccccc1C(=O)NCc1ccco1)c1ccc2c(c1)OCCO2	18µM	–	?	·	–
O=C(NCc1ccco1)c1cccnc1-c1nc2ccccc2s1	21µM	–	29µM	–	–
CC(C)CNC(=O)c1ccccc1NC(=O)CN(c1ccc2c(c1)OCCO2)S(C)(=O)=O	–	–	–	–	–
O=C(O)CCC(=O)Nc1ccccc1C(=O)NCc1ccco1	–	–	–	–	–
O=C(Nc1ccccc1C(=O)NCc1ccco1)Nc1cccc2ccccc12	21µM	–	12µM	?	–
O=C(NCc1ccco1)c1cccnc1Cl	–	–	–	–	–
O=C(Nc1cccc(Cl)c1)Nc1ccccc1C(=O)NCc1ccco1	18µM	–	18µM	–	–
CCOC(=O)c1sc2cc([N+](=O)[O-])cc(SCC(C)C)c2c1N	?	–	–	·	–
CCCCN(C)C(=O)c1nc2ccccn2c1CN1CCN(C/C=C/c2ccccc2)CC1	?	–	26µM	–	·
Cc1cc(S(=O)(=O)N2CCN(Cc3noc(CCC(=O)N4CCCCC4)n3)CC2)ccc1F	16µM	–	?	·	–
Cc1cc(S(=O)(=O)N2CCCCC2)ccc1OCC(=O)N1CCCC1	–	–	–	–	–
COc1ccccc1C(=O)Nc1ccc(-c2cc(C(F)(F)F)nn2-c2ccccc2)cc1	4.1µM	–	5.2µM	·	–
COc1ccccc1C(=O)NC(=O)Nc1ccc(-c2cc(C(F)(F)F)nn2-c2ccccc2)cc1	5.8µM	–	4.6µM	·	–
CCc1nc2ccc(C(=O)N(CC)CC(=O)Nc3c(F)cccc3F)cc2nc1CC	–	·	–	–	·
Cc1cc(C(=O)OCC(=O)NCc2ccc(Cl)cc2Cl)c(C)o1	–	·	–	–	–
Cc1cccc(C)c1N1CCN(C(=O)N2CCCCC2)CC1	–	–	–	–	–
CCNC(=O)NC(=O)C(C)OC(=O)c1oc2ccccc2c1CSC1CCCCC1 (stereo unspecified)	?	–	?	–	–
CNC(=O)NC(=O)C(C)OC(=O)c1oc2ccccc2c1CSc1ccc(Cl)cc1 (stereo unspecified)	?	–	21µM	–	–
SMILES	DT40 TDP1 CPT	miR-21 reporter	TDP1 cell noCPT	uPA generation	TDP1 inh
CCC(=O)N(C1=C(NC)C(=O)c2ccccc2C1=O)C(C)C	2.1µM	?	1.6µM	?	–
CCC(=O)NC1=C(NC(C)c2ccccc2)C(=O)c2ccccc2C1=O (stereo unspecified)	?	–	?	–	–
O=C(CSc1nncs1)Nc1ccc(N2CCCCC2)cc1	?	·	16µM	–	–
CCCCN(C)CCN1C(=O)C2C(C(=O)Nc3ccc(Cl)cc3)C3C=CC2(O3)C1C(=O)NC1CCCCC1 (stereo unspecified)	–	–	–	–	–
CCN(CC)CCCNC(=O)c1nn(C)c2c1CSc1ccccc1-2	?	–	?	·	–
COc1ccc(OC)c(CNC(=O)c2nn(C)c3c2CSc2ccccc2-3)c1	21µM	–	?	·	–
Cn1nc(C(=O)NC2CCCCC2)c2c1-c1ccccc1SC2	26µM	–	?	–	·
CC(C)CCNC(=O)c1nn(C)c2c1CSc1ccccc1-2	?	–	18µM	·	–
CC(C)N(C(=O)c1nn(C)c2c1CSc1ccccc1-2)C1CCCCC1	21µM	–	10µM	–	–
COC(=O)CCC(=O)N1CCCC(CO)(Cc2ccccc2C)C1 (stereo unspecified)	–	–	–	–	–
O=C(CCN1C(=O)C2CCCCC2C1=O)Nc1ccc(Br)cc1F (stereo unspecified)	–	·	–	–	–
CCN(CC)S(=O)(=O)c1ccc(NC(=O)c2nn(C)c3c2CSc2ccccc2-3)cc1	?	–	18µM	·	–
Cc1ccc(N2CCN(C(=O)c3nn(C)c4c3CSc3ccccc3-4)CC2C)cc1 (stereo unspecified)	23µM	–	?	·	–
COc1ccc(CNC(=O)c2nn(C)c3c2CSc2ccccc2-3)cc1	?	–	?	·	–
CCOc1ccc(CCNC(=O)c2nn(C)c3c2CSc2ccccc2-3)cc1	16µM	–	?	·	–
CC(C)OCCCNC(=O)c1nn(C)c2c1CSc1ccccc1-2	?	–	21µM	·	–
CCOc1ccc(C(C(=O)Nc2ccc(F)cc2)N(C(=O)Cn2nnc3ccccc32)C2CC2)cc1 (stereo unspecified)	–	–	–	–	–
Cc1cc2cc(CCNC(=O)c3cccs3)c(=O)[nH]c2cc1C	?	–	?	–	–
Cc1ccc2oc(=O)c(/C=C(\O)c3sc(C)nc3C)nc2c1	?	–	23µM	–	–
COc1cccc(NC(=O)Nc2nccc(C)n2)c1	–	–	–	2.5µM	–
COc1cccc(NC(=O)Nc2nc(SC(C)(C)C)ns2)c1	15µM	–	?	?	·
CCCSc1nsc(NC(=O)Nc2ccc(F)cc2F)n1	5.2µM	–	4.1µM	–	·
CC(=O)Nc1cccc(NC(=O)Nc2cccc(F)c2)c1	–	–	?	–	·
CCCSc1nsc(NC(=O)CC)n1	–	–	?	–	–
CCSc1nsc(NC(=O)Nc2cccc(F)c2)n1	21µM	–	4.1µM	–	·
O=S(=O)(c1ccc2c(c1)CCCN2)N1CCCCC1	–	·	–	–	–
COc1ccc(N2CCN(Cc3nc4c(c(=O)[nH]c(=O)n4C)n3Cc3ccccc3)CC2)cc1	–	–	–	·	–
COc1cccc(NC(=O)Nc2nc(SC)ns2)c1	9.2µM	–	?	–	–
CCCSc1nsc(NC(=O)C(c2ccccc2)c2ccccc2)n1	18µM	?	29µM	–	–
Cc1ccccc1NCN1C(=O)C2C3C=CC(C3)C2C1=O (stereo unspecified)	–	–	–	–	–
